Assay results: PMC8065475, “Structure and Dynamics of an Archeal Monoglyceride Lipase from Palaeococcus ferrophilus as Revealed by Crystallography and In Silico Analysis” (2021)

By UniProt entry, the sequences of proteins in these tests, tags left out. Residues count along the entry.
UniProt A0A6I8WFT7, 1-260 limits assumed: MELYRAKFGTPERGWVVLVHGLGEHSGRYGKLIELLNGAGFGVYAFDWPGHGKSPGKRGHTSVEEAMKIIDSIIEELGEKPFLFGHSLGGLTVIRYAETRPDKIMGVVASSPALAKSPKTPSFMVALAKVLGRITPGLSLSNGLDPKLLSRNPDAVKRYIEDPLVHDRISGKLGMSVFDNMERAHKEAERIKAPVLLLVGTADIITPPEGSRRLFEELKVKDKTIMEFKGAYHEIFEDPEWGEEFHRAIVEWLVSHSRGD

Key:
[1] = biological target: T1, PFL (Palaeococcus ferrophilus lipase / monoglyceride lipase, previously annotated as lysophospholipase) (Palaeococcus ferrophilus, UniProt A0A6I8WFT7); assay: p-nitrophenyl ester hydrolysis, colorimetric; details: substrate p-nitrophenyl acetate 1 mM; Hepes 100 mM pH 8; 30 or 70 °C (not stated which); covalent
[2] = biological target: T1, PFL (Palaeococcus ferrophilus lipase / monoglyceride lipase, previously annotated as lysophospholipase); assay: thermofluor (SYPRO Orange); details: MAFP 50 µM, LDAO 0.1%, Hepes 100 mM pH 8; absolute Tm, not a shift; covalent
Description: thermofluor (SYPRO Orange) on PFL (Palaeococcus ferrophilus lipase / monoglyceride lipase, previously annotated as lysophospholipase)

**Q.** With CCCCC/C=C\C/C=C\C/C=C\C/C=C\CCCCP(=O)(F)OC (centres unmarked) as the compound, how does the pIC50 [1] read?
**A.** Its pIC50 is 7.82.

**Q.** What about the MAFP [2] of the same compound?
**A.** The MAFP was 83.5 ± 1.3 °C.
